Assay results taken from patent US8846746B2, “Pyrazole compound and pharmaceutical use thereof” (Japan Tobacco Inc., priority 2011, dated 2014).

The chains behind the UniProt entries cited, without tags or fusion partners.
UniProt P13866, whole entry: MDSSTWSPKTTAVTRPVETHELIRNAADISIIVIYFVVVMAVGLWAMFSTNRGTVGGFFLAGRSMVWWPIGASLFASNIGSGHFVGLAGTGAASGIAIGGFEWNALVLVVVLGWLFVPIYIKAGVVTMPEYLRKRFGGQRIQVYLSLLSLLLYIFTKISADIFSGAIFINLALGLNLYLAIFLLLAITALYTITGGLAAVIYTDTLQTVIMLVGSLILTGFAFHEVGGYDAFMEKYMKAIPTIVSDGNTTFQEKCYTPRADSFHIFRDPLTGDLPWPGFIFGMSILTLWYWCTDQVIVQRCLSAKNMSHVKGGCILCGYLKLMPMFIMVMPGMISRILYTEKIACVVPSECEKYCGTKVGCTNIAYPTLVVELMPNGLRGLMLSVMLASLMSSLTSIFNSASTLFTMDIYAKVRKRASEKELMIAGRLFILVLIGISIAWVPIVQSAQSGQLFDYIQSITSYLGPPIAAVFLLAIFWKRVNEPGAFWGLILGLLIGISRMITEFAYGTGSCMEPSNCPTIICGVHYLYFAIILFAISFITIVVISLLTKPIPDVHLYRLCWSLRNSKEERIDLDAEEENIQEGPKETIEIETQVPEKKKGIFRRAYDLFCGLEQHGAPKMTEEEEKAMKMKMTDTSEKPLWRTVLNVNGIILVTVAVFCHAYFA

Target: human SGLT1 (Homo sapiens (Human), UniProt P13866)
Experiment: SGLT1 inhibitory activity: 14C-AMG uptake into CHO-K1 cell line stably expressing human SGLT1
Assay type: cell-based
[1] = read-out: human SGLT1 IC50, CHO-K1 cells stably expressing human SGLT1

Row | Compound | IC50 [1] | IC50 (read-out: human SGLT1 IC50, CHO-K1 cells expressing human SGLT1)
1 | O=C1C[C@H](C(=O)Nc2cc(-c3cccc(COCC(F)(F)F)c3)n(-c3cccc(OCc4ccccc4)c3)n2)CN1 | 0.0045 µM | –
2 | COCC(C)(C)c1cccc(-c2cc(NC(=O)[C@@H]3CNC(=O)C3)nn2-c2ccccc2)c1 | 0.031 µM | –
3 | CCOC(C)(C)c1cccc(-c2cc(NC(=O)[C@@H]3CNC(=O)C3)nn2-c2ccccc2)c1 | 0.022 µM | –
4 | Cc1cccc(-n2nc(NC(=O)[C@H]3CNC(=O)C3)cc2-c2cccc(OC(F)(F)F)c2)c1 | – | 0.0045 µM
5 | O=C1C[C@H](C(=O)Nc2cc(-c3cccc(COCC(F)(F)F)c3)n(-c3cccc(O)c3)n2)CN1 | 0.037 µM | –

Like-named read-outs stand apart in the source and are kept apart here.
